From US20230159537A1, “COMPOUND, PREPARATION METHOD THEREOF, AND USE THEREOF IN PREPARATION OF ANTI-CANCER DRUG” (TIANJIN JIKUN MEDICAL TECHNOLOGY CO., LTD., priority 2020, published 2023) come the findings set out here.

Protein sequences, listed by entry. Tags and fused reporters are not part of them. Residues count along the entry.
UniProt P22607, 23-806: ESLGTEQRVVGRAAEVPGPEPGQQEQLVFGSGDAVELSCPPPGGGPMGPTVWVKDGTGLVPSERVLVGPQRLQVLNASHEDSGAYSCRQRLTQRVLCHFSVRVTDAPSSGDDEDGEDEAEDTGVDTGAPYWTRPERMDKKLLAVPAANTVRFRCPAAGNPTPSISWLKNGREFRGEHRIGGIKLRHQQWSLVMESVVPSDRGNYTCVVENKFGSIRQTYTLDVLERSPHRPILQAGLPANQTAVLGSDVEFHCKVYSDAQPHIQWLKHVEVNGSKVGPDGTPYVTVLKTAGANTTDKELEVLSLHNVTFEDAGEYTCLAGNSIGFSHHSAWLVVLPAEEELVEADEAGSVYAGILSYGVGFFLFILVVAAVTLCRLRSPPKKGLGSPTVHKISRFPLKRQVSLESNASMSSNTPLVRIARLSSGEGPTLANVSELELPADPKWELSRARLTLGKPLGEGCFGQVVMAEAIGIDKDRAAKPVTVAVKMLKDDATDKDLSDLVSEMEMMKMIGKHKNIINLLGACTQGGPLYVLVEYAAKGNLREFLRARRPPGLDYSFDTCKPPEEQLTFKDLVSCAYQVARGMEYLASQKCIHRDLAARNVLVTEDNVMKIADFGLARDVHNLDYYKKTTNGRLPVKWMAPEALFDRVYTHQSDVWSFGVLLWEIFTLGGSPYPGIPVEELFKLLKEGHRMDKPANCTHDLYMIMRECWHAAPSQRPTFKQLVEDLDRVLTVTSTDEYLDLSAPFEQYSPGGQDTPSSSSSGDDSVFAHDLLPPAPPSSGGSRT
UniProt P22455, 22-802: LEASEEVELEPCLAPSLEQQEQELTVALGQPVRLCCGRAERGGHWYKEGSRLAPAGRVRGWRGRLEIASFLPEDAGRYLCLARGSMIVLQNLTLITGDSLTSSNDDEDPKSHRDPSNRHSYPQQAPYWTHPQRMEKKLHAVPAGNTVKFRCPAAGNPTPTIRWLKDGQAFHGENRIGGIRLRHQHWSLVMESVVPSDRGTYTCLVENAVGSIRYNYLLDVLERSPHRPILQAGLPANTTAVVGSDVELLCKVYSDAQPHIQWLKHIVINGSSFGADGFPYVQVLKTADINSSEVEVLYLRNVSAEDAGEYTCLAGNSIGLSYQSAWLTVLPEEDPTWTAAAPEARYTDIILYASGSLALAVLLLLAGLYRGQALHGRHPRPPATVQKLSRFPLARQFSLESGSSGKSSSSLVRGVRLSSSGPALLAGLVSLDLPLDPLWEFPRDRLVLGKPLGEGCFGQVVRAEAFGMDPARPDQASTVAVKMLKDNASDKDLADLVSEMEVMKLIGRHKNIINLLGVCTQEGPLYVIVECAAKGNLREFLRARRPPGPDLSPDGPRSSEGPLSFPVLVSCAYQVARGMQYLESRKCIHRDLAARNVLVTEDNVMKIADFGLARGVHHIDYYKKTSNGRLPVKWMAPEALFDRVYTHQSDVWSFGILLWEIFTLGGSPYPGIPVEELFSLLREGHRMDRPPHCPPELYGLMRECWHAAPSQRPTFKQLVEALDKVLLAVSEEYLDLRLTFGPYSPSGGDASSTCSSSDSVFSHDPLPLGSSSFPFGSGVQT
UniProt P11362, 22-822: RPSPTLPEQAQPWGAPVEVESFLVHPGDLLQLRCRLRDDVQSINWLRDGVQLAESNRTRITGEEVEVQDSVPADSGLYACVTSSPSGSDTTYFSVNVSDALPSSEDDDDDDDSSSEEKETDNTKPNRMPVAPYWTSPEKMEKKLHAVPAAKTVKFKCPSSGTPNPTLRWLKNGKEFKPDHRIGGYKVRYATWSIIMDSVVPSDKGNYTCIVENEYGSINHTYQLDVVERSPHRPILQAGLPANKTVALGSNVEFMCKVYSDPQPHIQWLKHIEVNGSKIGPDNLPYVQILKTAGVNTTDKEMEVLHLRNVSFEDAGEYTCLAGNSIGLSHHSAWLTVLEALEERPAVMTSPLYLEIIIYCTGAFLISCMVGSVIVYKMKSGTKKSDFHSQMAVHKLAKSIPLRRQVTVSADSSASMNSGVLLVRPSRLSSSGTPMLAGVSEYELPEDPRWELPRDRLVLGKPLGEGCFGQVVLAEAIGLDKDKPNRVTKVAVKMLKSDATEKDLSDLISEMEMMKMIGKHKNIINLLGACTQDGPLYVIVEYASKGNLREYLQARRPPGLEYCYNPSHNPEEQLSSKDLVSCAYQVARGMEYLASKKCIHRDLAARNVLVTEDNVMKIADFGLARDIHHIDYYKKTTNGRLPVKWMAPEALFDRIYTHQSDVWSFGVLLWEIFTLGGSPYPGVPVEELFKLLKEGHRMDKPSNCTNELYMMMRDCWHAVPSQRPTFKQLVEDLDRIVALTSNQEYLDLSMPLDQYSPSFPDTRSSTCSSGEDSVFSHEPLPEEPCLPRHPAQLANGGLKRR

Where only a bound is given, the exact number is not on record here.

One data set has as its target T1, FGFR3 (Homo sapiens, UniProt P22607).
T1 construct: made in house; host or cells: Escherichia coli
The data set is described as follows: HTRF enzyme activity test, FGFR3. The class given is biochemical.

The target of the next data set is FGFR4 (Homo sapiens, UniProt P22455). The data set is described as follows: HTRF enzyme activity test, FGFR4. The class given is biochemical.
The next data set addresses T2, FGFR1 (Homo sapiens, UniProt P11362).
T2 construct: made in house; host or cells: Escherichia coli
Nature of the data set: HTRF enzyme activity test, FGFR1. The class given is biochemical. In general terms: Time-resolved FRET reads energy transfer from a long-lived donor to a nearby acceptor.

For data set [1], the system named is NCI-H1581 subcutaneous xenograft (high FGFR1 expression). The conditions noted are these: mouse, in vivo.

The IC50 is the concentration at which inhibition is half-maximal.

With `C=CC(=O)N1CCN(CCCCCn2nc(-c3ccc(C)c4ccccc34)c3c(N)ncnc32)CC1` [Compound 19], the IC50 against FGFR3, against FGFR4 and at FGFR1 was more than 5000 nM throughout.
For `C=CC(=O)N1CCN(CCCCCn2nc(-c3ccc(Br)c4ccccc34)c3c(N)ncnc32)CC1` [Compound 20], the IC50 at FGFR3, against FGFR4 and against FGFR1 was more than 5000 nM in each case.
Regarding `COc1cc(OC)cc(-c2nn(CCCCCN3CCN(C(=O)/C=C/C(F)(F)F)CC3)c3ncnc(N)c23)c1` [Compound 36], in data set [1], the body weight loss result is given as “did not lead to an obvious weight loss” and the tumor inhibition rate is listed as 72%.
